Results: ChEMBL document CHEMBL2021814, “Fragment-based and structure-guided discovery and optimization of Rho kinase inhibitors” (J Med Chem, 2012)

By UniProt entry, the sequences of proteins in these tests, tags left out. Where a name states a change or a piece, a line headed by the entry shows the natural chain unless it says otherwise.
UniProt O75116: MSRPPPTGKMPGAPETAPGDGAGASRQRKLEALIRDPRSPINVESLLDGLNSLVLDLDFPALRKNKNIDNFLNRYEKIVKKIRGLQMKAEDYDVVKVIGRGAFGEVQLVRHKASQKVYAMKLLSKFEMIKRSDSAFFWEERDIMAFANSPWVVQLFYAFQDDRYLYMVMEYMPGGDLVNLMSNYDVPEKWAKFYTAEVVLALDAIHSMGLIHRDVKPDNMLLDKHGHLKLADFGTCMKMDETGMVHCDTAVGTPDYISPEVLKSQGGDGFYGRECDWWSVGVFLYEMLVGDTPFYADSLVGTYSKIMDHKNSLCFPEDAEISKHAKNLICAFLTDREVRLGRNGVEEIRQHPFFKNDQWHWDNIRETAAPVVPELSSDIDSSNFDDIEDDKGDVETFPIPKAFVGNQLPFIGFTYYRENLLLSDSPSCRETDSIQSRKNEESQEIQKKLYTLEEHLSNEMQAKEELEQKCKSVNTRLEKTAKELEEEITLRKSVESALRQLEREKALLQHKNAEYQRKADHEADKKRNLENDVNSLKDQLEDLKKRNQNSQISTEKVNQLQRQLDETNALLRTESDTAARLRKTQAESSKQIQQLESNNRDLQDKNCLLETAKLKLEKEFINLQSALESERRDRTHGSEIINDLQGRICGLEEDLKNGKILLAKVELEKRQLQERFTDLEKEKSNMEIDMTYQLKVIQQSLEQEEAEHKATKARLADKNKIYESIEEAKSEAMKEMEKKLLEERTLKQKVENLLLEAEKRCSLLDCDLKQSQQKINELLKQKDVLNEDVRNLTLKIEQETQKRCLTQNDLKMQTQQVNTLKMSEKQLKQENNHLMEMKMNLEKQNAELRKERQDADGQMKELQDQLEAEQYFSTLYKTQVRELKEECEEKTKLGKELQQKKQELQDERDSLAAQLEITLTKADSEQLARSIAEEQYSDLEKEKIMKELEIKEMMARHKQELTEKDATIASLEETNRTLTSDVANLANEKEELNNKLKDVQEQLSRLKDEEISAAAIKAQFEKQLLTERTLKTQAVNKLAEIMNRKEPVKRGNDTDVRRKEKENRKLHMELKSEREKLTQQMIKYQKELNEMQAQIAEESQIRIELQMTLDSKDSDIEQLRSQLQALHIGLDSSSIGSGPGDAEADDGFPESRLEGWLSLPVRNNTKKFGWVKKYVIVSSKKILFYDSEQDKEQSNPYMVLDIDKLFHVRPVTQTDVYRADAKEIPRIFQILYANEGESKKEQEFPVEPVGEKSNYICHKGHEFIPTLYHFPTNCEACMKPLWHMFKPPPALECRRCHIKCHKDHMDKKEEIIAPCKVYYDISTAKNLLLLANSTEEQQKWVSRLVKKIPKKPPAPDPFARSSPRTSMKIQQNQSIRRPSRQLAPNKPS
UniProt Q13464: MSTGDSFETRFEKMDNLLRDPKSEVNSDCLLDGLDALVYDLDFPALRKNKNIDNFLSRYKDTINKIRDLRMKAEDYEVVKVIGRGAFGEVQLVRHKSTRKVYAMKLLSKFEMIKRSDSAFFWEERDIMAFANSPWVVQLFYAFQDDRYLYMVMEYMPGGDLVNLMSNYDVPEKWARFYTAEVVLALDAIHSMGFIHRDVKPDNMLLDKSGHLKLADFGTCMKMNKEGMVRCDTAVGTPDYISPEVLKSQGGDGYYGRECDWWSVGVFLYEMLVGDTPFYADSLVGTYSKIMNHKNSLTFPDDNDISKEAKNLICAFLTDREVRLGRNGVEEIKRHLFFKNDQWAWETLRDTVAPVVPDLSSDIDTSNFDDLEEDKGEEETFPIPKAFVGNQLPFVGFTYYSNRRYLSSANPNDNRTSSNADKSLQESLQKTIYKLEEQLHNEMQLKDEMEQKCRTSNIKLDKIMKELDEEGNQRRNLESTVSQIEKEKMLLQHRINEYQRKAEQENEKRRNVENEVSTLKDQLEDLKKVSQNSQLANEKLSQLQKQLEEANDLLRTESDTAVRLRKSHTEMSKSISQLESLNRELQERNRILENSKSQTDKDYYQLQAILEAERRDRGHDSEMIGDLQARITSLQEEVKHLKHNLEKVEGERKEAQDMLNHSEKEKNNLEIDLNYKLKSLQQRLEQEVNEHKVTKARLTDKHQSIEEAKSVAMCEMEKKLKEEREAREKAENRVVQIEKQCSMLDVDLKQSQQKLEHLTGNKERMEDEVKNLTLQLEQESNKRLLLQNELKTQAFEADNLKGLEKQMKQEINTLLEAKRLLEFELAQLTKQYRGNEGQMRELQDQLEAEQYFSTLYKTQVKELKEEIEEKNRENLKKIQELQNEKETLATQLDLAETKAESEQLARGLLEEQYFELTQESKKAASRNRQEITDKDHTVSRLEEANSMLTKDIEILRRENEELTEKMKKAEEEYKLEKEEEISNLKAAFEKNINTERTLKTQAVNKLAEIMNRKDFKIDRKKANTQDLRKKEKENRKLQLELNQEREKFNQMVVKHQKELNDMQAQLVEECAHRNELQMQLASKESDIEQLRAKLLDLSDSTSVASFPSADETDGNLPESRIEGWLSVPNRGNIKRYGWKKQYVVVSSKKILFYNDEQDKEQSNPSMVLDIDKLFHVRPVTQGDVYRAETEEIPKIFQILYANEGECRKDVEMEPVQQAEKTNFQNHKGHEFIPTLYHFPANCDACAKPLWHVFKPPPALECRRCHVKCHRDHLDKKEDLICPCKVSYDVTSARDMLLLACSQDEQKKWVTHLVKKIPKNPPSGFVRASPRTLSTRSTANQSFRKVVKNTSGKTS

Key:
[1] = molecular target: Rho-associated protein kinase 2 (Homo sapiens, UniProt O75116); details: 400 uM
[2] = molecular target: Rho-associated protein kinase 1 (Homo sapiens, UniProt Q13464); details: Sf9, 400 uM

| Compound | inhibition [1] [%] | inhibition [2] [%] |
| --- | --- | --- |
| O=C(Nc1ccncc1)c1ccncc1 | 42 | 44 |
| O=C(Nc1ccncc1)c1ccccn1 | 35 | 35 |
